pIC50: −log10 of the molar value.

The assay has as its target T1, Enoyl-[acyl-carrier-protein] reductase [NADH] (Mycobacterium tuberculosis (strain ATCC 25618 / H37Rv), UniProt P9WGR1).
T1 sequence (P9WGR1 whole entry): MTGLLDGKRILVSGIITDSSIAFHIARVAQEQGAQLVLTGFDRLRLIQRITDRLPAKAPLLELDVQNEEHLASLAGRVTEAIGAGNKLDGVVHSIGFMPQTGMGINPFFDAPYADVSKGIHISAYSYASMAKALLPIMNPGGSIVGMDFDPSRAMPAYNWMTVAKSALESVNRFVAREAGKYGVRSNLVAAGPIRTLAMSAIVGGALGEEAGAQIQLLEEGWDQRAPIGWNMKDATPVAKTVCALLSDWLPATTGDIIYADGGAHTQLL

Take `CC(C)Cc1cccc(NC(=O)C2CC(=O)N(C3CCCCC3)C2)c1` (stereo unspecified) [1-cyclohexyl-N-[3-(2-methylpropyl)phenyl]-5-oxopyrrolidine-3-carboxamide]: the pIC50 (usually the IC50 on a negative log10 scale, so that one unit is a factor of ten) is 5.26.
